#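 How tested: cells in 96-well plates exposed to compound for 48 hours at five concentrations. TGI denotes the concentration required for complete inhibition of growth.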
# What was measured:
# Assay in all cases: NCI-60 cell line screen, 48 h
# HT29 colon = tested on: HT29 colon
# SNB-75 CNS = tested on: SNB-75 CNS
# MDA-MB-435 = tested on: MDA-MB-435
# SN12C renal = tested on: SN12C renal
# SR leukemia = tested on: SR leukemia
# OVCAR-8 ovarian = tested on: OVCAR-8 ovarian
# UACC-62 melanoma = tested on: UACC-62 melanoma
# UACC-257 melanoma = tested on: UACC-257 melanoma
# HOP-62 NSCLC = tested on: HOP-62 NSCLC
# HL-60(TB) leukemia = tested on: HL-60(TB) leukemia
# MCF7 breast = tested on: MCF7 breast
# DU-145 prostate = tested on: DU-145 prostate
# CCRF-CEM leukemia = tested on: CCRF-CEM leukemia
# 786-0 renal = tested on: 786-0 renal
# NCI-H322M lung = tested on: NCI-H322M lung
# COLO 205 colon = tested on: COLO 205 colon
# CAKI-1 renal = tested on: CAKI-1 renal
# SK-MEL-5 melanoma = tested on: SK-MEL-5 melanoma
# TK-10 renal = tested on: TK-10 renal
# HS 578T breast = tested on: HS 578T breast
# SNB-19 CNS = tested on: SNB-19 CNS
# M14 melanoma = tested on: M14 melanoma
# NCI-H522 lung = tested on: NCI-H522 lung
# K-562 leukemia = tested on: K-562 leukemia
# OVCAR-3 ovarian = tested on: OVCAR-3 ovarian
# OVCAR-4 ovarian = tested on: OVCAR-4 ovarian
# NCI-H460 lung = tested on: NCI-H460 lung
# U251 CNS = tested on: U251 CNS
# SF-295 CNS = tested on: SF-295 CNS
# NCI/ADR-RES ovarian = tested on: NCI/ADR-RES ovarian
# NCI-H23 lung = tested on: NCI-H23 lung
# ACHN renal = tested on: ACHN renal
# HCT-116 colon = tested on: HCT-116 colon
# LOX IMVI melanoma = tested on: LOX IMVI melanoma
# SK-MEL-28 melanoma = tested on: SK-MEL-28 melanoma
# BT-549 breast = tested on: BT-549 breast
# SF-268 CNS = tested on: SF-268 CNS
# SW-620 colon = tested on: SW-620 colon
# NCI-H226 lung = tested on: NCI-H226 lung
# IGROV1 ovarian = tested on: IGROV1 ovarian
# RPMI-8226 leukemia = tested on: RPMI-8226 leukemia
# HCT-15 colon = tested on: HCT-15 colon
# A549 NSCLC = tested on: A549 NSCLC
# PC-3 prostate = tested on: PC-3 prostate
# MALME-3M melanoma = tested on: MALME-3M melanoma
# OVCAR-5 ovarian = tested on: OVCAR-5 ovarian
# UO-31 renal = tested on: UO-31 renal
# HOP-92 NSCLC = tested on: HOP-92 NSCLC
# MDA-N = tested on: MDA-N
# SK-OV-3 ovarian = tested on: SK-OV-3 ovarian
# SK-MEL-2 melanoma = tested on: SK-MEL-2 melanoma
# MOLT-4 leukemia = tested on: MOLT-4 leukemia
# T-47D breast = tested on: T-47D breast
# EKVX NSCLC = tested on: EKVX NSCLC
# RXF 393 renal = tested on: RXF 393 renal
# HCC-2998 colon = tested on: HCC-2998 colon
# A498 renal = tested on: A498 renal
# SF-539 CNS = tested on: SF-539 CNS
# KM12 colon = tested on: KM12 colon
# MDA-MB-231 breast = tested on: MDA-MB-231 breast
smiles,measurement,setting,value
Cc1cc(N(CCCl)CCCl)ccc1C=O,TGI,HT29 colon,> 100 µM
same,TGI,SNB-75 CNS,> 100 µM
same,TGI,MDA-MB-435,> 100 µM
same,TGI,SN12C renal,> 100 µM
same,TGI,SR leukemia,> 100 µM
same,TGI,OVCAR-8 ovarian,> 100 µM
same,TGI,UACC-62 melanoma,10 µM
same,TGI,UACC-257 melanoma,29.7 µM
same,TGI,HOP-62 NSCLC,> 100 µM
same,TGI,HL-60(TB) leukemia,82 µM
same,TGI,MCF7 breast,> 100 µM
same,TGI,DU-145 prostate,> 100 µM
same,TGI,CCRF-CEM leukemia,> 100 µM
same,TGI,786-0 renal,> 100 µM
same,TGI,NCI-H322M lung,> 100 µM
same,TGI,COLO 205 colon,88.1 µM
same,TGI,CAKI-1 renal,> 100 µM
same,TGI,SK-MEL-5 melanoma,> 100 µM
same,TGI,TK-10 renal,66.9 µM
same,TGI,HS 578T breast,85.3 µM
same,TGI,SNB-19 CNS,> 100 µM
same,TGI,M14 melanoma,> 100 µM
same,TGI,NCI-H522 lung,64.7 µM
same,TGI,K-562 leukemia,> 100 µM
same,TGI,OVCAR-3 ovarian,> 100 µM
same,TGI,OVCAR-4 ovarian,> 100 µM
same,TGI,NCI-H460 lung,> 100 µM
same,TGI,U251 CNS,> 100 µM
same,TGI,SF-295 CNS,> 100 µM
same,TGI,NCI/ADR-RES ovarian,> 100 µM
same,TGI,NCI-H23 lung,> 100 µM
same,TGI,ACHN renal,> 100 µM
same,TGI,HCT-116 colon,> 100 µM
same,TGI,LOX IMVI melanoma,> 100 µM
same,TGI,SK-MEL-28 melanoma,> 100 µM
same,TGI,BT-549 breast,66.5 µM
same,TGI,SF-268 CNS,> 100 µM
same,TGI,SW-620 colon,> 100 µM
same,TGI,NCI-H226 lung,16.6 µM
same,TGI,IGROV1 ovarian,> 100 µM
same,TGI,RPMI-8226 leukemia,> 100 µM
same,TGI,HCT-15 colon,> 100 µM
same,TGI,A549 NSCLC,80 µM
same,TGI,PC-3 prostate,> 100 µM
same,TGI,MALME-3M melanoma,40.1 µM
same,TGI,OVCAR-5 ovarian,53.2 µM
same,TGI,UO-31 renal,87.4 µM
same,TGI,HOP-92 NSCLC,40.8 µM
same,TGI,MDA-N,> 100 µM
same,TGI,SK-OV-3 ovarian,> 100 µM
same,TGI,SK-MEL-2 melanoma,75.5 µM
same,TGI,MOLT-4 leukemia,81.8 µM
same,TGI,T-47D breast,> 100 µM
same,TGI,EKVX NSCLC,96.3 µM
same,TGI,RXF 393 renal,43 µM
same,TGI,HCC-2998 colon,> 100 µM
same,TGI,A498 renal,2.69 µM
same,TGI,SF-539 CNS,> 100 µM
same,TGI,KM12 colon,> 100 µM
same,TGI,MDA-MB-231 breast,> 100 µM

# Reference: PubChem BioAssay (NCI)
